Key:
[1] = system: DENV-2 (Dengue virus type 2); assay: Plaque reduction assay (PFU), DENV-2 in BHK21; format: cell-based; conditions: DENV-2, BHK21, PFU/well 150 ± 25
Vero-E6 cells = assay: Cytotoxicity CC100 in Vero-E6 cells (72 h)

## NC(=O)c1ncn([C@@H]2O[C@H](CO)[C@@H](O)[C@H]2O)n1 [R, ribavirin, reference compound]
[1]
  % inhibition (PFU): 75 ± 23%
Vero-E6 cells
  CC100 (100% cytotoxic concentration): >160 µg/mL
